The target in the assay is 5-hydroxytryptamine receptor 1A (Rattus norvegicus, UniProt P19327). Description: Displacement of [3H]8-OH-DPAT from rat cortex 5-hydroxytryptamine 1A receptor. Put shortly:
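Competition binding in rat cortex membranes, using the radioligand named in each line at a concentration of approximately its K_D.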

The chains behind the UniProt entries cited, without tags or fusion partners.
UniProt P19327, whole entry: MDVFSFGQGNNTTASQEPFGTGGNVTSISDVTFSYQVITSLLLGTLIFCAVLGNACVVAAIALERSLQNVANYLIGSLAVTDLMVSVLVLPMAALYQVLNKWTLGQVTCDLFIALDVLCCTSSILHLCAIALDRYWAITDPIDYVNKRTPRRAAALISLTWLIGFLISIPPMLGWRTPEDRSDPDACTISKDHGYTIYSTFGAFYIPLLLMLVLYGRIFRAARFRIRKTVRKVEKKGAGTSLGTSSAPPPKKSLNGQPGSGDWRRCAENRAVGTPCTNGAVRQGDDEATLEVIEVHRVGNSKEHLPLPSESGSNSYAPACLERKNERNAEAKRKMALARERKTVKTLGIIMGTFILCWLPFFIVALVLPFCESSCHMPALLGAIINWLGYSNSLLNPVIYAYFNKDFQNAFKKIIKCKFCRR

A word on the IC50: it is the concentration needed to halve the response being measured. Consider `NCCc1c[nH]c2ccc(O)cc12` [SEROTONIN], for which the concentration for half-maximal inhibition (IC50) came to 5.2 nM. That is a single-digit nanomolar value.
